Results as given in US20090209606A1 (priority 2004, published 2009).

Tests used:
SU-DHL-1 cells [1] = experiment: Wash-out experiments: intracellular ATP and adenylate kinase release; format: cell-based; conditions: 30 to 120 minutes exposure, ATP and adenylate kinase at 48 and 72 hours
SU-DHL-1 cells [2] = experiment: Western blot / immunoblot of apoptotic proteins; format: cell-based; conditions: SU-DHL-1, 20 hours

Compound: NP(=O)(O)N(CCCl)CCCl
- loss of viability after brief exposure and wash-out (SU-DHL-1 cells [1]): minimal loss of viability
- expression of total p53 (SU-DHL-1 cells [2]): no change
- up-regulation of Ser-15-phosphorylated p53 (SU-DHL-1 cells [2]): minor up-regulation
